The list shows a part of the results.
T1: LIN28A (human?, UniProt Q9H9Z2 1-209)
T1 sequence: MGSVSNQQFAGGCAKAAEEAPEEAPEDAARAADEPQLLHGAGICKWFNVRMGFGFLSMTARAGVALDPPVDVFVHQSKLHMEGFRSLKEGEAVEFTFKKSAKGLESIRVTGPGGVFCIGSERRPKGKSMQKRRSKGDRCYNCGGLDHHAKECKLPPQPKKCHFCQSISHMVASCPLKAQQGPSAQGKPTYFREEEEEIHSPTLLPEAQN

T2: CIRBP (Homo sapiens, UniProt Q14011 1-172)
T2 sequence: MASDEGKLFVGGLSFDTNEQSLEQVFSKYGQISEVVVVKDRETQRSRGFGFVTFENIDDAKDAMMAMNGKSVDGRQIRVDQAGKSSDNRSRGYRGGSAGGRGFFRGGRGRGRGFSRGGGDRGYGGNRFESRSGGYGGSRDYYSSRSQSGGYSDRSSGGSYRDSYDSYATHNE

T3: DHX36 (Homo sapiens, UniProt Q9H2U1 1-1008)
T3 sequence: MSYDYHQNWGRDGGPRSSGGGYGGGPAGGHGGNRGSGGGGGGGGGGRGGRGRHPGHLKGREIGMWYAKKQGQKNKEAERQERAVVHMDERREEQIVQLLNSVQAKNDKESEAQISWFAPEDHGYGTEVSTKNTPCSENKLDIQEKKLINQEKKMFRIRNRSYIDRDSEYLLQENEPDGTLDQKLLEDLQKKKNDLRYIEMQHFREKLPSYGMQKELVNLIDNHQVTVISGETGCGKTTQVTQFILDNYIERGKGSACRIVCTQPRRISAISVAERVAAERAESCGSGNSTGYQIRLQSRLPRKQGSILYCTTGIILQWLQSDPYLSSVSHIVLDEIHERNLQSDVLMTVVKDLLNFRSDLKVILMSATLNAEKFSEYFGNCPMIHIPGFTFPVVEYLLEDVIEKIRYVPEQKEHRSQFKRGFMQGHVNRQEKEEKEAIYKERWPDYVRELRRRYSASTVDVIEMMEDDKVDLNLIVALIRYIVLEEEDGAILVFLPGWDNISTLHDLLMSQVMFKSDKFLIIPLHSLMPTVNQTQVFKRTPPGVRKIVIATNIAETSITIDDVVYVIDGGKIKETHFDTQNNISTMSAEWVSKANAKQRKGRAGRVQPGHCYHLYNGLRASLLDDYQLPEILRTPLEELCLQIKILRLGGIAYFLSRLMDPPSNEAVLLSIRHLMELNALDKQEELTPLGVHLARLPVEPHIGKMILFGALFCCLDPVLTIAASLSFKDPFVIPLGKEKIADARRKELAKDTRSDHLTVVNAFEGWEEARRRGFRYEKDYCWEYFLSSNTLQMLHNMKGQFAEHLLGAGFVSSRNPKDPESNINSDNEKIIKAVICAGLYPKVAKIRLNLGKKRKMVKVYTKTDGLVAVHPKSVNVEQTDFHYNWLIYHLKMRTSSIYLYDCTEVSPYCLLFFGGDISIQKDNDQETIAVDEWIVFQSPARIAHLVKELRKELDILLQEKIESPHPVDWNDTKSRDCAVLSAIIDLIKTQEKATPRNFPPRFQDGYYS

B1: hsa-mir-6804 (structured_RNA)
RNA: GGGAACUGGCGAGGUCUCGUAGCCUAACGGUGUACGAAGUUUCAGCGACGGUGGGGGCCACGCUGACAGCCGCGCUGAAGCUUCGUGCAC
B2: hsa-mir-520c_520b_519c_519b (structured_RNA)
RNA: GGGAAAGCUCUUUUGCAAACGCGGCAGAGGUGUACGAAGUUUCAGCCUUUCUGUUGUCUGAAAGAAAAGAAAGGCUGAAGCUUCGUGCAC
B3: hsa-mir-4314 (structured_RNA)
RNA: GGGACGAGCCCAAUCUGGUUCAUAGUCAGGUGUACGAAGUUUCAGCACAGGUAGUGGCCACAGUGAGAAAGCUGGCCUGUCCUUCUGCGCUGAAGCUUCGUGCAC
B4: hsa-mir-5583-1 (structured_RNA)
RNA: GGGAAAUAUCAGGAGGAUAUGCGAUACGGGUGUACGAAGUUUCAGCAUUCUGGCUAGGUGAUCAUCAGAAUGCUGAAGCUUCGUGCAC
B5: hsa-mir-8085 (structured_RNA)
RNA: GGGACCAGUCUGGGUGGAGGGUGUAGAAGGUGUACGAAGUUUCAGCAGGCAUGGGUGGCUGCUGAAGCUUCGUGCAC
B6: hsa-mir-6770-1_6770-3_6770-2 (structured_RNA)
RNA: GGGAACAUACGAAGUAGUUAGUCGCAAUGGUGUACGAAGUUUCAGCACGUGACCUCCUGGGCCUGGCUGAAGCUUCGUGCAC
B7: hsa-mir-4652 (structured_RNA)
RNA: GGGAGAGUCACCAAGGGUAAGUCCAGAUGGUGUACGAAGUUUCAGCGAACUAACUAACCAGAACUAUUUUGUUCGCUGAAGCUUCGUGCAC
B8: hsa-mir-3130-1 (structured_RNA)
RNA: GGGAGAUGCUGAUAUUGAUACAGUGCCCGGUGUACGAAGUUUCAGCCAGCCUGUUGUCAAGGCUGGCUGAAGCUUCGUGCAC
B9: hsa-mir-198 (structured_RNA)
RNA: GGGACAACAGCUGCGAAGGGACACAUUUGGUGUACGAAGUUUCAGCGUUCCUGUGAUUUUUCGCUGAAGCUUCGUGCAC
B10: hsa-mir-5571 (structured_RNA)
RNA: GGGAACAGAAAAGCCAUUAUGGAGUCAGGGUGUACGAAGUUUCAGCUCCCAGGAAAUUCACUUUAGGAAGUCCUAGGAGCUGAAGCUUCGUGCAC
B11: hsa-mir-7853 (structured_RNA)
RNA: GGGAGCUGCGGGUACCAACCUAACAUCCGGUGUACGAAGUUUCAGCCUUCACUGGUGCAGUAAGAAGGCUGAAGCUUCGUGCAC
B12: hsa-mir-542 (structured_RNA)
RNA: GGGAGAAAACGAAAUUUGUCAGCAAGCAGGUGUACGAAGUUUCAGCCACGAGAUACCAGUGUGCACUUGUGGCUGAAGCUUCGUGCAC
B13: hsa-mir-5188 (structured_RNA)
RNA: GGGAAGCAUCAACAUAGGUAUCCUUGGCGGUGUACGAAGUUUCAGCGAUUAUUGUAAGCAGGAUCCAUUCAAUAAUCGCUGAAGCUUCGUGCAC
B14: hsa-mir-548ah (structured_RNA)
RNA: GGGAAAGAUUUCCGCCGGUGCAUCACCAGGUGUACGAAGUUUCAGCUUUGCCAAUAAAAGUAAUGACAAAGCUGAAGCUUCGUGCAC
B15: PARIS_ID25 (structured_RNA)
RNA: GGGAAAGGAGCCAGUGAUAUGUUAGCCUGGUGUACGAAGUUUCAGCAAAUCUUAAUAUUUAUGUAUGUAUUUUAUUAUUACCGGUUUGCUGAAGCUUCGUGCAC
B16: hsa-mir-4538 (structured_RNA)
RNA: GGGAAGGUCAGGGGUUAAUGUGAUAACGGGUGUACGAAGUUUCAGCCUGAACUGGGCUGGGUUGAGCUGGGCUGGGCUGAGUUGAGGCUGAAGCUUCGUGCAC
B17: hsa-mir-4751 (structured_RNA)
RNA: GGGAAAGCAGAUAACCCCGCGUCCUCUUGGUGUACGAAGUUUCAGCAGGGCAGGGGUGUGGCUGCUGAAGCUUCGUGCAC
B18: hsa-mir-4418 (structured_RNA)
RNA: GGGAACCGAAAGUUUCGGACCCAGGGAUGGUGUACGAAGUUUCAGCGGUGGUUGUGGGAGUCACUGCUGAAGCUUCGUGCAC
B19: hsa-mir-7156 (structured_RNA)
RNA: GGGCAGGACGCUAUGUCCGUGUAACUCCGGUGUACGAAGUUUCAGCCAGAGUGUGCAUGGCAGGCUGCUGAAGCUUCGUGCAC
B20: hsa-mir-1285-1 (structured_RNA)
RNA: GGGAAAUCACUAUCAUCAGCACAGGGAAGGUGUACGAAGUUUCAGCCAGGCUGGUCUCAAACUCCUGGUCUGGCUGAAGCUUCGUGCAC
B21: hsa-mir-8087 (structured_RNA)
RNA: GGGAAGAUAGUAAGGGUUGAACGAGCCGGGUGUACGAAGUUUCAGCGGGGCCCUACUUUAAGGGCCCUGCUGAAGCUUCGUGCAC
B22: hsa-mir-1246 (structured_RNA)
RNA: GGGAACUCUACUCGGGCGACAUCACUACGGUGUACGAAGUUUCAGCCAGGAGUGGACACCUGGCUGAAGCUUCGUGCAC
B23: hsa-mir-4754 (structured_RNA)
RNA: GGGAAACGAUCAGAAGUGUACAGGUUAUGGUGUACGAAGUUUCAGCGAGUGAGGCCCAGUGGUCACCGCCGCCCUCGCUGAAGCUUCGUGCAC

target: U1A (Homo sapiens, UniProt P09012); assay: FOREST: bead pull-down of RNA structure library v1, barcode microarray; U1A/LIN28A: 20 mM HEPES pH 7.5, 80 mM KCl, 20 mM NaCl, 10% glycerol, 2 mM DTT, 0.1 ug/uL BSA, 4 C; BG4/CIRBP/DHX36: 10 mM Tris-HCl pH 7.5, 100 mM KCl (or LiCl),; high values mean tight binding

Binder	binding signal
B1	0.0917 z-score
B2	0.0908 z-score
B3	1.73 z-score
B4	0.088 z-score
B5	0.0858 z-score
B6	0.0842 z-score
B7	0.0842 z-score
B8	0.0823 z-score
B9	0.0803 z-score
B10	0.0795 z-score
B11	0.0783 z-score
B12	0.0776 z-score
B13	0.0775 z-score
B14	0.0755 z-score
B15	0.0726 z-score
B16	0.0724 z-score
B17	0.0705 z-score
B18	0.069 z-score
B19	0.0687 z-score
B20	0.0686 z-score
B21	0.0677 z-score
B22	0.0668 z-score
B23	0.0651 z-score

target: T1, LIN28A; assay: as above

Binder	binding signal
B1	-0.64 z-score
B2	-1.08 z-score
B3	0.878 z-score
B4	1.32 z-score
B5	0.207 z-score
B6	0.0835 z-score
B7	0.065 z-score
B8	-0.659 z-score
B9	1.38 z-score
B10	-1.01 z-score
B11	-1.48 z-score
B12	1.13 z-score
B13	1.05 z-score
B14	-1.02 z-score
B15	1.02 z-score
B16	1.78 z-score
B17	0.117 z-score
B18	-0.366 z-score
B19	-0.126 z-score
B20	-0.167 z-score
B21	-0.247 z-score
B22	-1.2 z-score
B23	1.02 z-score

target: T2, CIRBP; assay: as above

Binder	binding signal
B1	-0.207 z-score
B2	0.199 z-score
B3	1.08 z-score
B4	0.91 z-score
B5	0.502 z-score
B6	0.646 z-score
B7	0.115 z-score
B8	-0.681 z-score
B9	-0.535 z-score
B10	0.389 z-score
B11	-0.225 z-score
B12	1.49 z-score
B13	2.04 z-score
B14	-1.74 z-score
B15	0.393 z-score
B16	3.13 z-score
B17	1.1 z-score
B18	-0.198 z-score
B19	0.0315 z-score
B20	0.381 z-score
B21	1.21 z-score
B22	0.242 z-score
B23	0.229 z-score

target: T3, DHX36; assay: as above

Binder	binding signal
B1	0.303 z-score
B2	-0.102 z-score
B3	0.548 z-score
B4	0.889 z-score
B5	0.432 z-score
B6	-1.46 z-score
B7	0.306 z-score
B8	-0.369 z-score
B9	0.938 z-score
B10	-0.266 z-score
B11	-0.513 z-score
B12	-0.164 z-score
B13	-0.657 z-score
B14	-1.33 z-score
B15	0.61 z-score
B16	4.18 z-score
B17	1.17 z-score
B18	1.42 z-score
B19	-0.465 z-score
B20	-0.49 z-score
B21	0.432 z-score
B22	-1.25 z-score
B23	0.0103 z-score

Reference: paper PMC7723054
